# From patent publication US20250248979A1, “NOVEL GPX4 INHIBITORS AND USES THEREOF” (THE TRUSTEES OF COLUMBIA UNIVERSITY IN THE CITY OF NEW YORK, priority 2022, published 2025)
# Target: panel of 44 targets (GPCRs, ion channels, enzymes, transporters, nuclear receptors)
# Details: read-out: IC50 (M) Reference Compound (EC50 for agonist)
smiles,measurement,value
CCOC(=O)c1ncn2c1CN(C)C(=O)c1cc(F)ccc1-2 [Flumazenil],IC50,1.7e-08 M
